Measured values published in BindingDB's records for 11063601.

Chains of the proteins cited; added tags and fusions are not shown. Residues count along the entry.
UniProt Q05941, 23-502 limits assumed: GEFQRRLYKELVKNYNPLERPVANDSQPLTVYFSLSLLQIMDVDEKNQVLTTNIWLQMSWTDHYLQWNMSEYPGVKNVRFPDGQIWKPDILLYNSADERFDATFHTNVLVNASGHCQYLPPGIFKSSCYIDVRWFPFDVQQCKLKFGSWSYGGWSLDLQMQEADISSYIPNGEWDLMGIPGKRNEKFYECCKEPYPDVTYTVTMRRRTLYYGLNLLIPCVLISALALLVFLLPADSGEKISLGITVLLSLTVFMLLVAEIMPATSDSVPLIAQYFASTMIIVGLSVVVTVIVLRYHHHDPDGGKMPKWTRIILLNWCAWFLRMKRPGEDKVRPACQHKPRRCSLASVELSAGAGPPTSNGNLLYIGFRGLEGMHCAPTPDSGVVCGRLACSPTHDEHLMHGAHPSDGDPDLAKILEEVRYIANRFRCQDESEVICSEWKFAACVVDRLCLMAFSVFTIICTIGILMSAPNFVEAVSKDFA

Biological target: Neuronal acetylcholine receptor subunit alpha-7 (Rattus norvegicus, UniProt Q05941)
Assay: Potency was determined by measuring current activation in Xenopus oocytes expressing rat alpha-7 nAChRs

SMILES: CN1CC2(CN3CCC2CC3)OC1=O (stereo unspecified)
- EC50: 6 mM
